Experimental data: US10858339B2, “Aryl cyclopropyl-amino-isoquinolinyl amide compounds” (priority 2017, dated 2020)

Chains of the proteins cited; added tags and fusions are not shown.
UniProt O75116, whole entry, species assumed: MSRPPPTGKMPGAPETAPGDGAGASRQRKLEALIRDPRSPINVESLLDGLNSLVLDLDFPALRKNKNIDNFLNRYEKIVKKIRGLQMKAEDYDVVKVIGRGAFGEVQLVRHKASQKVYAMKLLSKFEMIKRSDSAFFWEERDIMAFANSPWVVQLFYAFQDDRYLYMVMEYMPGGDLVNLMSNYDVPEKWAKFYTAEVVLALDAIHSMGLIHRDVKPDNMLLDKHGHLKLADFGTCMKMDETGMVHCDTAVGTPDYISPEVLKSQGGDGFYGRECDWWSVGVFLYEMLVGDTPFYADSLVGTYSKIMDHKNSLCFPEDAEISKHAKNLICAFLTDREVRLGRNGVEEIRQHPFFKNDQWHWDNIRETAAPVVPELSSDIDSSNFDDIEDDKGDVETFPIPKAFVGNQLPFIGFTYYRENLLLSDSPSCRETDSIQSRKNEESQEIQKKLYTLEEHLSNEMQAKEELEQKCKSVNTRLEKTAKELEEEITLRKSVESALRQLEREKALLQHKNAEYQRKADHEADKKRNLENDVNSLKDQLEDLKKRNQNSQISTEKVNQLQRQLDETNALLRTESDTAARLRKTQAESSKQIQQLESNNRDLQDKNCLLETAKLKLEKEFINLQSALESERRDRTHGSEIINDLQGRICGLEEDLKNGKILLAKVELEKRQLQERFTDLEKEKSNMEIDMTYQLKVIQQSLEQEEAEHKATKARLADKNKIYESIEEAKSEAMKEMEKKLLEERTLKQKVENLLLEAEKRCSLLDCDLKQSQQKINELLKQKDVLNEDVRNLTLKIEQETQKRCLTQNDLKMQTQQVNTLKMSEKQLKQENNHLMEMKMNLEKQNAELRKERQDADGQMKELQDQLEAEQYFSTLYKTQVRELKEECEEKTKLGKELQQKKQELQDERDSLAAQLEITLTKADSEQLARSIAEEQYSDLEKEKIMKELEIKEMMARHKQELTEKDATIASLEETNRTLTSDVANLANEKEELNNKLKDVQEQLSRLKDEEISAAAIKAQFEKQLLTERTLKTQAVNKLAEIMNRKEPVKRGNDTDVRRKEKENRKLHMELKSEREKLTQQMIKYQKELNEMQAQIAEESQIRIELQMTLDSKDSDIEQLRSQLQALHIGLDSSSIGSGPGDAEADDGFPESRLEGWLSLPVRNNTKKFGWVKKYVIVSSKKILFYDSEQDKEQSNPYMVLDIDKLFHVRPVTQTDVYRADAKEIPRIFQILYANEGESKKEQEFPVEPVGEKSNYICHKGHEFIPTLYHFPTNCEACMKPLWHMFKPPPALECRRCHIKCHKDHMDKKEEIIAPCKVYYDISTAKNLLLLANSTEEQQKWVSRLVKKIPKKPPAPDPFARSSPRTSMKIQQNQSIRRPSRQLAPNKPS
UniProt O60674, whole entry, species assumed: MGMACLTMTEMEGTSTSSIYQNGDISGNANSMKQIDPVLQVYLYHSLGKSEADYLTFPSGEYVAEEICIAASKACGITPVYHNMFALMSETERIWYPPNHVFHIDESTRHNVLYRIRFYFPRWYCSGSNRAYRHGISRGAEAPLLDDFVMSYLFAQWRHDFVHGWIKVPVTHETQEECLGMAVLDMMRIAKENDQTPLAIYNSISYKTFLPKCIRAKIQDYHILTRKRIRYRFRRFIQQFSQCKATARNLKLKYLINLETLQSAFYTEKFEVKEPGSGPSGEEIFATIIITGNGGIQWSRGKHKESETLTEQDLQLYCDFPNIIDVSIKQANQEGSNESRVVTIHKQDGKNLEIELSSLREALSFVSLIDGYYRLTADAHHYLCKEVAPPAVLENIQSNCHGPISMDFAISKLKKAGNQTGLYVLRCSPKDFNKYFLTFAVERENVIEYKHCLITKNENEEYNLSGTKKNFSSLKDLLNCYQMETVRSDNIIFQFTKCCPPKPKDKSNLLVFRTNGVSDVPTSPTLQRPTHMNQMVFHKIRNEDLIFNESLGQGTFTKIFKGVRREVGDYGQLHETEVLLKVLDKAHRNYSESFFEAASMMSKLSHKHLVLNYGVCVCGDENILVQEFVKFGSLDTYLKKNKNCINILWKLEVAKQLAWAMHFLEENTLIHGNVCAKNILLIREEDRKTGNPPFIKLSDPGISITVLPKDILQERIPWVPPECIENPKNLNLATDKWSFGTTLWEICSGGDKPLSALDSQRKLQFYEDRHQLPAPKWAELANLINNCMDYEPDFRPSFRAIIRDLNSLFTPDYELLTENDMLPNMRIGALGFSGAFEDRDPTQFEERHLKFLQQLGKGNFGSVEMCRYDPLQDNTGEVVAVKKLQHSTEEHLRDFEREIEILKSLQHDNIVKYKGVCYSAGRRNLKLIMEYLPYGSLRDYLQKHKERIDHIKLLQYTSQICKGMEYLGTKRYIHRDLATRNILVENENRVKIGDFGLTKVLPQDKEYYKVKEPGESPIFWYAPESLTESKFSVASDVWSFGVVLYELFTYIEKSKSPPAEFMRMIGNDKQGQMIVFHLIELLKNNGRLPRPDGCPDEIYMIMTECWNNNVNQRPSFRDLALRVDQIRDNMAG

How the values were obtained:
[1] = molecular target: ROCK2 (Homo sapiens, UniProt O75116); test: biochemical; conditions: ROCK2, Table 16
[2] = molecular target: JAK2 (Homo sapiens, UniProt O60674); test: JAK kinase assay, JAK2 enzyme; conditions: JAK2, Table 16;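 also: JAK2 kinase reaction run 75 min at room temperature, leftover ATP read by Kinase-Glo luminescence, 11-point dilution series in 2.5% DMSO, percent of inhibitor-free DMSO control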
[3] = molecular target: T1, JAK3 (Homo sapiens, UniProt P52333); test: JAK kinase assay, JAK3 enzyme; conditions: JAK3, Table 16
T1 sequence (P52333 1-1124): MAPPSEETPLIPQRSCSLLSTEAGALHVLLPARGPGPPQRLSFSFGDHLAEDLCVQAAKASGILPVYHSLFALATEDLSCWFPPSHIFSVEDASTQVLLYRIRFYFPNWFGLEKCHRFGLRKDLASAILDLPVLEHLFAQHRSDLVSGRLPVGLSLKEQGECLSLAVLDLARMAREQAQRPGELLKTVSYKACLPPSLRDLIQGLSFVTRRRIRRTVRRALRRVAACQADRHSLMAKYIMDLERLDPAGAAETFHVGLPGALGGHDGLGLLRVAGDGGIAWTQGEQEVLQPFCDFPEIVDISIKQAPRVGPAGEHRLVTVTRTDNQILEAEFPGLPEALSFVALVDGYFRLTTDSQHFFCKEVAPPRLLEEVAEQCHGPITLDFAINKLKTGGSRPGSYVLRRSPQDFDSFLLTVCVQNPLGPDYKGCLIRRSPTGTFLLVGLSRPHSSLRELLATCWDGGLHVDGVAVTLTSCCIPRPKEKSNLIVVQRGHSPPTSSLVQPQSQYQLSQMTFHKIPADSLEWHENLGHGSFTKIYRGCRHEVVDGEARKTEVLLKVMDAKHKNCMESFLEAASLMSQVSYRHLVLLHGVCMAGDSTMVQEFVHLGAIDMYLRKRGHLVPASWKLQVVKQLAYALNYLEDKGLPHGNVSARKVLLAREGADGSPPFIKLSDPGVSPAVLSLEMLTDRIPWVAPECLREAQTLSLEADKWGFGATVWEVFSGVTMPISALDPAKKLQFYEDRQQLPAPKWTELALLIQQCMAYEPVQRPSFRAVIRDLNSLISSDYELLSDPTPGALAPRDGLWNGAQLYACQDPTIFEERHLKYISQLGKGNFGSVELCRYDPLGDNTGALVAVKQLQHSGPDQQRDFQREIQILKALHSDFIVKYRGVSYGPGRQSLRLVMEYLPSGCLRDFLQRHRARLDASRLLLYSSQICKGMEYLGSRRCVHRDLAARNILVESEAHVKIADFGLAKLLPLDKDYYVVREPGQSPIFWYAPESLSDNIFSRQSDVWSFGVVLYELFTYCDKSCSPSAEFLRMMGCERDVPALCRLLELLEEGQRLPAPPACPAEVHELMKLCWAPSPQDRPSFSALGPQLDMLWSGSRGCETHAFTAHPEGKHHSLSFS

Compound: O=C(Nc1ccc2cnccc2c1)[C@@H]1C[C@H]1c1cccc(S(=O)(=O)Nc2ccccn2)c1 [Example E279]
- Ki [1]: 0.0075 µM
- Ki [2]: 1.15 µM
- Ki [3]: 2.5 µM
